Laboratory results: PMC3973022, “Quercetin and quercetin 3-O-glycosides from Bauhinia longifolia (Bong.) Steud. show anti-Mayaro virus activity” (Parasites & Vectors, 2014)

Tested on: Mayaro virus (MAYV)
Assay type: cell-based
Conditions: CC50 in Vero cells / IC50 against MAYV
Description: Vero cells (African green monkey kidney, ATCC CCL-81) were grown at 37°C with 5% CO2, in Dulbecco’s modified Eagle’s medium (DMEM) (Life Technologies, USA) supplemented with 5% fetal bovine serum (Cultilab, BRA), 50 IU/mL of penicillin, and 50 μg/mL of streptomycin (Sigma-Aldrich, USA). Mayaro viruses (ATCC VR-66, lineage TR 4675) were propagated in Vero cells and viral stocks in 10% glycerol were kept at -70°C. Virus titer was determined by plaque assay (described under ‘Antiviral activity assay’).
Antiviral activity was evaluated using a virus yield inhibition assay. Briefly, confluent cell monolayers grown in 24-well plates were infected with MAYV (multiplicity of infection = 0.1) for 1 hour, then rinsed with PBS and treated for 24 hours (at 37°C and 5% CO2) with different concentrations (0–100 μg/ml) of flavonoids or extracts diluted in culture medium. After treatment, culture supernatants were recovered and used for titration of extracellular infectious virus particles. For virus titration, confluent cell monolayers in 24-well plates were infected with serial dilutions of recovered supernatants for 1 hour at 37°C, 5% CO2. […] Finally, cells were fixed with 20% formaldehyde and stained with 0.5% crystal violet in 20% ethanol, and viral plaques were counted. […]

With `NC(=O)c1ncn([C@@H]2O[C@H](CO)[C@@H](O)[C@H]2O)n1` [Ribavirin, reference compound] the “SI (Selectivity Index = CC50/IC50)” value was 8.
